Consider 1 molecule from patent publication US20230016424A1, “HYBRID AMIDE DERIVATIVES OF AMPHOTERICIN B” (The Board of Trustees of the University of Illinois, priority 2019, published 2023).

Sequences of proteins named here, by UniProt entry; tags and fusion partners are left off.
UniProt P05177, whole entry: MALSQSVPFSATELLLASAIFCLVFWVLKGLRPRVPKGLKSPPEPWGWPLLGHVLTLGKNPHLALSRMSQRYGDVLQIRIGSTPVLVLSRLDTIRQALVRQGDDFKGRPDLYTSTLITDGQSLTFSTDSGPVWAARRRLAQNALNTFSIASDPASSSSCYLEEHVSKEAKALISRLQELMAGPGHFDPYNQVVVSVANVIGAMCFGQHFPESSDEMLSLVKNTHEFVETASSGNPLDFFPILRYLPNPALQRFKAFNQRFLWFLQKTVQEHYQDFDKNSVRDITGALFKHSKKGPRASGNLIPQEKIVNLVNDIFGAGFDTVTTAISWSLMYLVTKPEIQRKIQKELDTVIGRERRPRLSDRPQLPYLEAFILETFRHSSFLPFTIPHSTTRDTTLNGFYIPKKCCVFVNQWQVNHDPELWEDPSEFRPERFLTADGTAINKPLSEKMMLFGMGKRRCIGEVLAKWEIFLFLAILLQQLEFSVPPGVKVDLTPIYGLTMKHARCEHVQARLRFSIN

The target of this series is T1, CYP1A2 (Homo sapiens, UniProt P05177).
T1 construct: 158 ul of human liver microsome (HLM) was added to all the wells; from tissue; host or cells: human liver microsomes
The series can be described thus: CYP Inhibition. In kind it is in vitro ADME. The following applies: 3 μM.

For `O=c1cc(-c2ccccc2)oc2c1ccc1ccccc12` [α-Naphthoflavone, reference compound], the “P450 1A2 % Inhibition, positive control” value is listed as 92.7%.
